# Antibody variant affinities, Ab-14 heavy chain, assay 1

The target is the same throughout: PDVDLGDISGINAS, from the HR2 region of SARS-CoV-2 spike.

Ab-14 is the parent antibody, in scFv form: VH, then the linker GGGGSGGGGSGGGGS, then VL. The light chain is unchanged in all variants.
VH: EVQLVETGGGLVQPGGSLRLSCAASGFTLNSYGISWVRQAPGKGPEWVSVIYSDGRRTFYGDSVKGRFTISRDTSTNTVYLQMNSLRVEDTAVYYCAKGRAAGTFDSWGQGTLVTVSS
VL: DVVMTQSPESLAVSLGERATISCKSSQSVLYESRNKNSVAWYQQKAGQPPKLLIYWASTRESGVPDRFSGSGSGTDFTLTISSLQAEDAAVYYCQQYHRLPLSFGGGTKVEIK

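The parent was found by panning a naive human phage display library on the peptide. The library (AAYL49) carries one to three amino acid substitutions per variant, with no insertions or deletions. In AlphaSeq, yeast of one mating type display the scFv and yeast of the other type display the target. Binding brings cells together so that they mate, and sequencing counts the barcode pairs among the diploids. The ratio of observed to expected reads was calibrated, replicate by replicate, on BCL2-family standards whose Kd was known from biolayer interferometry. Mating was done three times.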

Each variant is given by its three heavy chain CDRs, as the data file delimits them; those of the parent are GFTLNSYGIS, VIYSDGRRTFYGDSVK, GRAAGTFDS. Values are log10 of the apparent Kd in nM; lower means stronger binding. Where no diploid with the target was found in that replicate, the entry reads "nd": below detection, most likely a poor binder, though not proof of it. Three control strains display no target. For library AAYL49, 15% of the pairings with them gave a signal, with a median of 4.06 and one signal in twenty below 2.83, so weak values seen in few replicates may be background. The control count says in how many pairings with the empty strains this scFv gave a signal, with their mean in brackets. For reference, the parent read 0.65 as the reference entry and 4.11 (one replicate of three) as a member of this library.

CDR-H1	CDR-H2	CDR-H3	log10 Kd (nM) by replicate	empty controls
GFTLNSDGIS	VIYSDQRRTFYGDSVK	GRAAGTWDS	nd / nd / nd	0/9
GFTINSYGIS	VIYSDGRRHFYGDSVK	GRANGTFDS	1.85 / 1.42 / 1.73	3/9 (4.34)
GFYLNDYGIS	VIYSDGRRTFYNDSVK	GRAAGTFDS	1.07 / 1.03 / 1.06	2/9 (4.58)
GFTLNSYGIS	VIYGDGARTFYGDSVK	GRAAWTFDS	3.58 / 4.14 / 4.26	2/9 (3.92)
GFTLNSYGIS	VIYSDGRRHFYGDSVK	GRAAGTFDS	2.05 / 2.14 / 2.54	3/9 (3.17)
GFTLNYYGIA	VIYSDGRRTFYGDMVK	GRAAGTFDS	nd / nd / nd	0/9
GFTLNSYGIS	VIQSDGRRTAYGYSVK	GRAAGTFDS	nd / nd / nd	5/9 (4.26)
GFTLNSYGIL	VIYSDGRRTFYGADVK	GRAAGTFDS	nd / nd / nd	3/9 (4.43)
KFTLNSYGIS	VIPSDGRRTFYGDSVS	GRAAGTFDS	nd / nd / nd	4/9 (3.43)
GFTLNSTIIS	VIYSDGRRTFAGDSVK	GRAAGTFDS	nd / 4.42 / 4.33	1/9 (3.44)
GFTLNSSGIS	IIYSDGRRTFYGDSVK	GPAAGTFDS	5.40 / 4.05 / 5.31	4/9 (5.01)
GFTLNPYGID	VIYSDGRRTFQGDSVK	GRAAGTFDS	nd / nd / nd	1/9 (3.18)
GFSLNSYTIS	VIYSDGRRTFYGDSVK	GVAAGTFDS	nd / nd / nd	5/9 (4.21)
GFTLNSYGGS	VIYSDPRRTFYGDSVK	GRAALTFDS	4.61 / nd / 6.21	6/9 (4.91)
GFTLNDYGIS	VIYSDGRRTFYGDSVK	GRAGGPFDS	nd / nd / nd	0/9
GFTLNRYDIV	VIYSDGRRTFYGDSVK	GRAAGTFDS	nd / nd / nd	0/9
GFTLNAYGIS	VIYSDGRRTFYGDSVA	GRAAGTQDS	nd / nd / nd	0/9
GFTLNSYGMS	VIYSDGRRTFYTDSVK	GRACGTFDS	nd / nd / nd	1/9 (3.58)
GFTLNSYGWS	SIYSDGRRTFYGDSVK	ARAAGTFDS	nd / 3.69 / nd	0/9
CFTLNSYGIS	VIYPDGRRTFYGDSVK	GRAAGTFSS	nd / 5.69 / 4.73	4/9 (4.64)
GWTLWSYGMS	VIYSDGRRTFYGDSVK	GRAAGTFDS	nd / 4.37 / nd	3/9 (3.96)
GFTLNSYGIS	VIYSDGRRTFNGDSVK	GKAAGTFDS	3.02 / 3.24 / nd	0/9
GFTLNSYGNS	VIYSDGRRTFYGDSVK	GRAVGTQDS	nd / nd / nd	1/9 (4.49)
GFTLFSYGIS	HIYSDGRRTFYGDSVK	GRAAGTFDI	nd / 5.10 / nd	2/9 (3.87)
GFTLNSYGIS	VIYNDGRRTFYGDSVK	GCAAGTFDL	nd / nd / nd	0/9
GFTLNSYWIS	NIYSDGRRTFYGDSVK	GRAAGVFDS	nd / nd / nd	1/9 (3.02)
WFTLNSYGIS	VIYSDVRRTFYGISVK	GRAAGTFDS	nd / nd / nd	0/9
GFTLNSYGIS	VIYSDGQRTFYGDSVK	GRAVGTFDS	2.12 / 1.94 / 1.95	6/9 (4.32)
GFTLNTYGIS	VIYSDGRRTHYGDSVK	GRKAGTFDS	nd / nd / nd	0/9
GFTLNSLGIS	VIPSDGRRTFYGDSVK	GRAAGTFDS	nd / nd / 5.56	0/9
GFTLNRYGMH	VIYSDGRRTFYGDSVK	GRAAGTFDS	nd / 3.30 / 4.10	1/9 (2.67)
GFTLNSYGAS	VIYSDGRRTTYGDSVK	GRAAGTFDS	3.87 / nd / nd	0/9
TFTLNSYGIE	VIYSDGRRTFYGDSVM	GRAAGTFDS	nd / nd / nd	1/9 (3.73)
GGTLNSYGIS	LIYSDGRRTFYGDSVK	GRAAGDFDS	nd / 2.99 / nd	0/9
GKTLNSYGIS	VIYSDGDRHFYGDSVK	GRAAGTFDS	4.56 / 3.38 / 4.13	5/9 (4.27)
GFTLNTYGIS	RIYSDGRRTFYGDSVK	GRAAHTFDS	4.00 / nd / 4.20	5/9 (4.26)
GFNLNSYGIS	VIYSDGRRTFYWDSVK	GRAAGTMDS	4.68 / 5.64 / 5.09	2/9 (3.97)
GFTLNAYGIS	VIYSDGRRTFYGDSAK	GRAAGIFDS	4.75 / 5.19 / nd	4/9 (4.53)
GFTLVSYGIS	VIYNDGRRTFYGGSVK	GRAAGTFDS	5.31 / nd / nd	2/9 (2.96)
GFTLNSYGIS	VIYSDGRRTEYGVSVK	GRAAGTFDR	3.17 / 2.06 / 3.25	0/9
GFTLNDYGIS	VIYSDGRRTFYGHHVK	GRAAGTFDS	2.45 / 1.95 / 2.09	3/9 (4.43)
GFTLNSYGIT	VIYSDGRRTAYGDSVK	GRKAGTFDS	nd / 3.98 / 3.27	0/9
GQTLNSYGIS	VIYSDGRRTFYGDCVK	GRAAGPFDS	nd / 5.34 / nd	4/9 (4.44)
DFTLNSEGIS	VIYSDGRRTFYGDSVK	GRAAITFDS	4.50 / nd / nd	2/9 (4.55)
GFTLNSQGIS	TGYSDGRRTFYGDSVK	GRAAGTFDS	nd / nd / nd	0/9
GFTLNCYIIS	VIYSDGRRTFYGDSLK	GRAAGTFDS	nd / 3.77 / nd	0/9
GFTLFSYGIS	VIYSDGRRTFYGDSVK	GRAKGTLDS	4.29 / nd / nd	1/9 (1.79)
GFTLNSYGIS	VIYSDGRKPFYYDSVK	GRAAGTFDS	nd / nd / nd	0/9
GFALNSYGIS	VIYSDGRRTFYGDSVK	ERAAGTFDS	nd / nd / nd	0/9
GFTLNSYGIS	VIYRDGHRTFYGDSVK	GRAAGTYDS	nd / 4.90 / nd	3/9 (4.93)

From the AlphaSeq antibody data of Engelhart et al. 2022 (doi:10.1038/s41597-022-01779-4), copy in the FLAb collection.